Data from ChEMBL document CHEMBL1149967, “Synthesis and antitumor activity of novel distamycin derivatives” (Bioorg Med Chem Lett, 1996).

Test system: L1210
Assay: In vitro inhibition of L1210 murine leukemia (Drug sensitivity was determined by counting surviving cells after 48 hr of continuous exposure to at least 4 conc. of drug)

## Cl.Cn1cc(NC(=O)c2cc(NC(=O)c3cc(NC(=O)c4ccc(N(CCCl)CCCl)cc4)cn3C)cn2C)cc1C(=O)NCCC(=N)N [TALLIMUSTINE CHLORIDE]
  IC50: 0.0503 µg/mL
